The text below walks through data of publication PMC10975434, “Cannabinoid-Induced Inhibition of Morphine Glucuronidation and the Potential for In Vivo Drug–Drug Interactions” (Pharmaceutics, 2024).

Each structure is given as a SMILES string. Changes are numbered by the printed parent chain. Values joined by “and” are separate entries in the source; they are usually repeats but may differ in a detail not shown here. Equal values may be shown once.

In data set [1] the target is T1, UGT2B7 (Homo sapiens, UniProt P16662).
T1 sequence (P16662 24-529): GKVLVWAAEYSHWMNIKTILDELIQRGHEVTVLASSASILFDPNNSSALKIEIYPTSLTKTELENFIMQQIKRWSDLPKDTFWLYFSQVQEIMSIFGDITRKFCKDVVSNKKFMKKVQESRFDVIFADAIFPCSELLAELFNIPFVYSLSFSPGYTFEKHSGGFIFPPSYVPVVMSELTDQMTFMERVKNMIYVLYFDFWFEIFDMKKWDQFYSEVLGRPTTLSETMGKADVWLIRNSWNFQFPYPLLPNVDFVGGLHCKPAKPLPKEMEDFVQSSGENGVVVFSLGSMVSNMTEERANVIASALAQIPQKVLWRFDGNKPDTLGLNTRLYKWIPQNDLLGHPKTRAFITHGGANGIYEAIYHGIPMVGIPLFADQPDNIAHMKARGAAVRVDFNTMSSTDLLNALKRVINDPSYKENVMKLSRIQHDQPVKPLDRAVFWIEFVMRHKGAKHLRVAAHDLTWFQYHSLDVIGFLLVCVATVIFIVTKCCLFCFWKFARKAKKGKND
The data set can be described thus: IC50 determination and calculated Ki, morphine glucuronidation in HLM. The note with it: human liver microsomes, probe morphine 275 µM (morphine-3-glucuronide formation), Calculated Ki,u, Ki corrected with fu,inc.

Data set [2] addresses T2, UGT2B7 (Homo sapiens, UniProt P16662, Y268H).
T2 sequence (P16662 24-529 Y268H): T1 sequence (P16662 24-529) with Y245H
In words: biochemical.

For data set [3], the target named is T1, UGT2B7. In words: in vitro. The settings on record: human liver microsomes, probe morphine 275 µM (morphine-3-glucuronide formation).
Data set [4] addresses T2, UGT2B7. The data set can be described thus: IC50 determination, morphine glucuronidation in rUGT2B7-overexpressing HEK293 cell microsomes.

A word on the Ki: it is the equilibrium dissociation constant of an inhibitor or competing ligand from its target. A word on the IC50: it is the midpoint of a concentration-inhibition curve. Low readings indicate greater potency in that assay, high ones weaker potency in that assay. Take `C=C(C)[C@@H]1CCC(C)=C[C@H]1c1c(O)cc(CCCCC)cc1O` [CBD, cannabidiol, reference compound]: the Ki on UGT2B7 [1] is 0.21 ± 0.11 µM. The IC50 against UGT2B7 [2] is 9.1 µM and 4.9 µM; against UGT2B7 [3] it was 8.2 ± 4.5 µM; on UGT2B7 [4] it was 0.35 µM and 0.19 µM.
